# Literature values in patent publication US20140194559A1, “Novel Inhibitor Compositions and Methods of Use” (NuFarm UK Limited, priority 2011, published 2014).
# Details: hazard classification; cited from earlier work
smiles,measurement,value
"CCC(C)c1cc([N+](=O)[O-])cc([N+](=O)[O-])c1O (centres unmarked) [DNBP, 4,6-Dinitro-2-sec-butyl phenol, reference compound]",Oral Toxicity,Yes
same,Toxic by Inhalation,Yes
